{"source": "patent US10130658B2", "about": "“Method of ex vivo enhancement of immune cell activity for cancer immunotherapy with a small molecule ablative compound” (Provectus Pharmatech, Inc., priority 2015, dated 2018)", "origin": "cited, not measured here", "test_system": "melanoma", "data": [{"substance": "IL-2: interleukin-2, non-specific cytokine given intralesionally", "values": [{"measurement": "systemic tumor-specific response", "setting": "human, in vivo", "value": "unable to elicit a systemic tumor-specific response"}, {"measurement": "complete responses", "setting": "treated melanoma patients", "value": 62.5, "unit": "%"}]}]}
